Results taken from US9623046B2, “Amphiphilic Janus-dendrimers” (The Trustees Of The University Of Pennsylvania, priority 2009, dated 2017).

details: isolated salt

Row | Substance | solubility in common solvents
1 | (3,4,5)12G1-BnA-(3,4,5)-3-G1-(NH3Cl)3 [compound 109] | poor solubility in common organic solvents
2 | (3,4,5)12G1-PhA-(3,4,5) 3-G1-(NH3Cl)3 [104b] | poor solubility in common solvents
3 | (3,4,5)4G1-PhA-(3,4,5)-3-G1-(NH3Cl)3 [104a] | poor solubility in common solvents
